Literature values in patent publication US20200306244A1, “WNT INHIBITORS FOR USE IN THE TREATMENT OF FIBROSIS” (NOVARTIS AG, priority 2016, published 2020).

By UniProt entry, the sequences of proteins in these tests, tags left out. Residues count along the entry.
UniProt Q13705, 19-512: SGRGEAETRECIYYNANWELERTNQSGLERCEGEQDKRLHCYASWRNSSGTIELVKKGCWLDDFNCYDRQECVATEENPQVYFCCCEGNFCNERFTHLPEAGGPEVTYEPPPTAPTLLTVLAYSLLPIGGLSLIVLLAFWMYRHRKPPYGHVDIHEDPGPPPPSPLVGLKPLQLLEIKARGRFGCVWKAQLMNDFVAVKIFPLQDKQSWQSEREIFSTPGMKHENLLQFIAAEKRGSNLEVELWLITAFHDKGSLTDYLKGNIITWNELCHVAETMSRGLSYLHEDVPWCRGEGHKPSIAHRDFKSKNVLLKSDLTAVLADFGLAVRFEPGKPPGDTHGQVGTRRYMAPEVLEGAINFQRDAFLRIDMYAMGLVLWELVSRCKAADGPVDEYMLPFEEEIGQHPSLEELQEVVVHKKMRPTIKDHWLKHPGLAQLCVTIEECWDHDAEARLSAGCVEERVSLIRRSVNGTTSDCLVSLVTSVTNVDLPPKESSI
UniProt P27037, 20-513: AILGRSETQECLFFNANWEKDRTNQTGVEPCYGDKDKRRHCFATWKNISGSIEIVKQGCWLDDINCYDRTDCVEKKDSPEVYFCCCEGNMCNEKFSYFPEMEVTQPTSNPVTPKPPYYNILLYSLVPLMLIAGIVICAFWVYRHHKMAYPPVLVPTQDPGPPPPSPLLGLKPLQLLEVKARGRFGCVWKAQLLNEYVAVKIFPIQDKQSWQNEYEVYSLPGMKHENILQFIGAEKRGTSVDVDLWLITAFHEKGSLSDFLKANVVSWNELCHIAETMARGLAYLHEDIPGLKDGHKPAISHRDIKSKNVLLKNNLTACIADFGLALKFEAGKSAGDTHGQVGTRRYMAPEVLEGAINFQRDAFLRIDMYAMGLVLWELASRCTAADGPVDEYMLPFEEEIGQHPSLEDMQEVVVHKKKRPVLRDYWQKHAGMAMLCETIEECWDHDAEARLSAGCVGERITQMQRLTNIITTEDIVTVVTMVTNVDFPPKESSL

What was measured:
human ActRIIB = human ActRIIB (Homo sapiens, UniProt Q13705); settings: cited from earlier work
human ActRIIA = human ActRIIA (Homo sapiens, UniProt P27037); settings: cited from earlier work

In the case of “Bimagrumab: fully human monoclonal antibody (modified IgG1) binding the ligand binding domain of activin receptor type II (ActRII)”, the Kd (human ActRIIB) is given as 0.0017 ± 0.0003 nM and the Kd (human ActRIIA) is given as 0.434 ± 0.025 nM.
